## Ab-14 light chain CDR variants: yeast mating affinities

Reference: Li et al. 2023, doi:10.1038/s41467-023-39022-2. File: FLAb, binding data.

Antigen: PDVDLGDISGINAS, a 14-residue peptide of the SARS-CoV-2 spike HR2 region.

Each scFv is VH, the linker GGGGSGGGGSGGGGS, VL, as in the parent Ab-14, and differs from it in the CDRs of the light chain only.
VH: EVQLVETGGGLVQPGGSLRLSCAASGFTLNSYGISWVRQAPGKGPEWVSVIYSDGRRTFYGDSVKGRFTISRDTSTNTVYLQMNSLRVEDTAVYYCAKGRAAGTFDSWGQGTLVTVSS
VL: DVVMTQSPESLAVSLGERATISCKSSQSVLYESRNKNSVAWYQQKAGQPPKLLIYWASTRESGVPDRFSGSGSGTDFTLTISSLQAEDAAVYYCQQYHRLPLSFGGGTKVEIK

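The starting antibody came from a phage panning campaign against this peptide. The variants were designed computationally from a first round of random CDR variants and then made and measured. Their group label is 14L_En_Gibbs (En: ensemble of fine-tuned language models; Gibbs: Gibbs sampling). Affinity was read by AlphaSeq, a pooled yeast mating assay with surface-displayed partners. Pairs that bind mate more often; barcode pairs of the diploids are counted by sequencing. Scores were corrected for input abundance and mapped to Kd with protein pairs of known affinity run in the same pool. The assay was run in six technical replicates.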

Variants are written as CDR1, CDR2 and CDR3 of the light chain (limits as in the source). Parent: KSSQSVLYESRNKNSVA, WASTRES, QQYHRLPLS. Scale: log10 of Kd in nM, estimated from mating counts; low values are strong binders. "nd" means that the variant was in the library but no mating with the target was seen in that replicate; the authors take this as a sign of poor binding, and no number exists. Values of this round are not directly comparable with the first-round values of the same sequences. Three control strains display no target. For all light chain designs, 4% of the pairings with them gave a signal, with a median of 2.64 and one signal in twenty below 1.59, so weak values seen in few replicates may be background. For each scFv, signals with the empty controls are counted beside the result. The authors averaged sequences with at least three values out of six and counted those with two or fewer as poor binders.

With SMMFDTSDNYHERNNIA / DQAAIMA / QQYSILPLS the result was nd, 1.69, 1.92, nd, nd, nd (controls 0 of 18).
With VVMQNFIDGMERQYSIA / ETTRVME / QQYFHLPLI the result was nd, 0.95, 3.11, 2.48, 1.21, 1.01 (controls 0 of 18).
With ALELFEYQMMKDINSIA / NTEYKTN / QQYVRLPFS the result was 0.69, 0.87, 1.12, 0.81, 0.63, 1.16 (controls 2 of 18).
With RVTIISDPYMRNRNNIA / QTSERAH / QQYQMLPLA the result was -0.65, -1.06, -1.03, -1.12, -0.92, -0.33 (controls 0 of 18).
With KLDHYKLGENGMRGSVA / NMTIREY / QQYFHLPLF the result was nd, nd, 0.92, 2.05, nd, nd (controls 1 of 18).
With NIRGVEFESAMMGNAVA / GMSLVEA / QQYFRLPLH the result was 1.77, 1.32, 1.07, 1.30, 1.94, 1.29 (controls 1 of 18).
With FLAYALDQDGLAKNNIA / QTNLLEN / QQYERLPLA the result was nd, 2.02, 1.70, 1.33, 1.38, 2.26 (controls 1 of 18).
With TLSGHQYNYGQKKNSIA / EDNNRRL / QQYWRLPLS the result was nd, nd, 1.14, 0.76, 2.12, 0.96 (controls 0 of 18).
With QIAETFMQVGIGANNIA / NATVRPA / QQYLRLPLM the result was -0.20, -0.19, -0.26, -0.58, -0.50, -0.11 (controls 0 of 18).
With KIQMNEGTLMEQINSIA / NSEVIVQ / QSYFRLPLS the result was 1.09, 1.94, 1.31, 1.31, 1.45, 1.85 (controls 0 of 18).
With YAQMPFHEVGKDEQNIA / NATTRES / QQYFRLPIL the result was nd, nd, nd, nd, nd, nd (controls 0 of 18).
With QIALSEEEVGIHKNSIA / ENTVRPE / QQYLRLPLH the result was 0.92, 0.99, 0.64, 0.77, 1.32, 0.92 (controls 1 of 18).
With KLQTDYSIAQKRWSNVA / NADQRES / QQYFRLPIV the result was 0.39, 0.36, 0.08, 0.33, 0.09, 0.63 (controls 4 of 18).
With KIQQEHVGYNKKMEAIA / QGDQRCH / QSYDRLPLS the result was 0.82, 0.80, 0.73, 0.58, 0.77, 1.15 (controls 0 of 18).
With NLSMELEDMGVKTHSIA / EEQLPEY / QQYMRLPLM the result was 1.53, 0.99, 2.80, 2.55, 1.79, 1.71 (controls 0 of 18).
With HLSFPWQSGHDSMHNVA / NDSTLMT / QHYNRLPLS the result was nd, nd, nd, 3.82, nd, 3.94 (controls 3 of 18).
With KIHCRELMHGGQINNIA / EAAKLVE / QQYALLPLA the result was 0.24, 0.87, 1.47, 1.32, 0.27, 3.32 (controls 0 of 18).
With QITQVQQYDAPNTYNVA / DATVSGR / QQYSQLPLT the result was 1.45, 0.94, 1.13, 1.08, 0.73, 1.59 (controls 0 of 18).
With TLSDWLTYGMEQMNRIA / DRSHLEW / QQYGRLPLS the result was nd, 1.96, 1.32, 2.45, 2.38, 1.79 (controls 0 of 18).
With HVEHDWLESNATMKAVA / EGATLAD / QQYGRLPLS the result was 1.07, 0.80, 0.91, 1.08, 0.88, 1.33 (controls 0 of 18).
With MVNQHDEGFKGVKDNIA / NAATKEG / QHYGRLPLS the result was 1.67, 1.28, 1.31, 1.62, 1.39, 1.11 (controls 2 of 18).
With KLSMETAWLTGQMDSIA / HVEIRWA / QQYHKLPLI the result was nd, nd, nd, 2.18, 2.63, 2.25 (controls 0 of 18).
With SLTIYQDENGLQHQSIA / GAGLRML / QQYHRLPLT the result was 0.47, 0.54, -0.07, 0.60, 0.52, 0.42 (controls 0 of 18).
With RVQMGDQPGKTARNNIA / DGEEGYR / QQYVRLPLS the result was 0.49, 0.53, 0.43, 0.35, 0.42, 0.51 (controls 3 of 18).
With TGNVELAYGVHEMNNVA / DGDQKED / QQYYRLPLA the result was 1.31, 1.66, 1.26, 0.21, 1.21, 1.24 (controls 1 of 18).
With MFEGYNSEGEANNNNVA / DHNCGER / QQYYRLPLT the result was nd, nd, nd, 3.40, nd, 2.03 (controls 0 of 18).
With QINVNRLMNYLLNNAIA / GKTLRVD / QQYARLPLS the result was nd, nd, 1.76, 2.83, nd, 2.97 (controls 1 of 18).
With QLQIEPNGYMGMRNNVA / DGVMVRM / QQYARLPLM the result was 0.55, 0.22, 0.46, 0.35, 0.29, 0.49 (controls 0 of 18).
With KLSLVLGVSKQSEKNIA / NTRLKVA / QQYDRLPLT the result was 1.74, 1.69, 1.79, 2.23, 0.53, nd (controls 1 of 18).
With SLELFSLEGDKPVNAVA / DEVVKLA / QQYFRLPLH the result was 1.21, 0.90, 1.13, 0.50, 0.91, 0.93 (controls 0 of 18).
With ALNQKGFALHGDRQSIA / HSDTRLA / QQYYRLPLA the result was 0.65, 0.93, 0.73, 0.41, 0.63, 0.60 (controls 1 of 18).
With MFKQSIEGNPLNTNNIA / DADSVTS / QQYARLPLF the result was 0.23, -0.03, -0.03, 0.13, 0.17, 0.17 (controls 1 of 18).
With NIQDNLGGLLSQKNSVA / STEEKSD / QSYHRLPLS the result was 0.57, 0.34, -0.33, -0.31, 0.08, -0.11 (controls 0 of 18).
With HITDLMYNNNEGMQSIA / DKAISVN / QQYFRLPLD the result was 0.75, 1.15, 1.27, 0.97, 1.27, 1.12 (controls 0 of 18).
With RIQMTDLEGRMAWNNIA / DMEESYR / QQYVRLPLY the result was 0.88, 0.62, 0.49, 0.59, 0.73, 0.58 (controls 0 of 18).
With KIEISNSWSLRGTRAIA / QASTRAH / QQYQRLPLT the result was 1.22, 1.26, 1.50, 1.19, 1.29, 1.79 (controls 2 of 18).
With KLSLSMSFSEEGTRHIA / NGSNRCH / QQYHRLPLI the result was 0.76, 0.73, 0.63, 0.73, 0.87, 1.09 (controls 2 of 18).
With KMGMAFQQDLMDEYSVA / DHMLRVT / QQYGRLPLS the result was nd, 2.35, 1.96, nd, 2.72, nd (controls 0 of 18).
With NLSDGEMYENATRSAVA / NTSMRDF / QQYNRLPLD the result was nd, 1.96, 2.56, 2.57, 4.35, nd (controls 2 of 18).
With HLSLPWQLGHDSTNAVA / NMSTLMT / QQYSRLPLS the result was 1.35, 0.62, 0.81, 0.36, 1.09, 0.76 (controls 3 of 18).
With KLSDNQEGQYNKGQSVA / EASEVCI / QQFYRLPLV the result was nd, 2.29, 1.84, nd, 1.95, 1.39 (controls 0 of 18).
With QFDLFENYQGMQGASIA / GETNRHT / QQYQKLPLS the result was 1.00, 1.18, 1.12, 0.81, 0.89, 1.16 (controls 1 of 18).
With KLKLSLSFSLRGTRAIA / DGSTRAH / QQYHRLPLT the result was 1.21, 0.66, 0.69, 0.62, 0.96, 0.93 (controls 1 of 18).
With MLTMFNNENQGWSNNIA / DTNNVQE / QQYSRLPFA the result was 1.04, 0.94, 1.50, 1.31, 1.53, 1.21 (controls 0 of 18).
With TIFQERSYEDGDERNIA / DARTRND / QQYNRLPLV the result was 0.51, 0.46, 0.28, 0.59, 0.64, 0.49 (controls 1 of 18).

Excerpt, the first 3 entries:

CDR-L1	CDR-L2	CDR-L3	replicates, log10 nM	empty controls
SMMFDTSDNYHERNNIA	DQAAIMA	QQYSILPLS	nd, 1.69, 1.92, nd, nd, nd	0 of 18
VVMQNFIDGMERQYSIA	ETTRVME	QQYFHLPLI	nd, 0.95, 3.11, 2.48, 1.21, 1.01	0 of 18
ALELFEYQMMKDINSIA	NTEYKTN	QQYVRLPFS	0.69, 0.87, 1.12, 0.81, 0.63, 1.16	2 of 18